PMC11487712, “Assessment of the Interaction of Acetylcholinesterase Binding with Bioactive Compounds from Coffee and Coffee Fractions Digested In Vitro in the Gastrointestinal Tract” (2024)

The chains behind the UniProt entries cited, without tags or fusion partners. Where a name states a change or a piece, a line headed by the entry shows the natural chain unless it says otherwise.
UniProt O42275: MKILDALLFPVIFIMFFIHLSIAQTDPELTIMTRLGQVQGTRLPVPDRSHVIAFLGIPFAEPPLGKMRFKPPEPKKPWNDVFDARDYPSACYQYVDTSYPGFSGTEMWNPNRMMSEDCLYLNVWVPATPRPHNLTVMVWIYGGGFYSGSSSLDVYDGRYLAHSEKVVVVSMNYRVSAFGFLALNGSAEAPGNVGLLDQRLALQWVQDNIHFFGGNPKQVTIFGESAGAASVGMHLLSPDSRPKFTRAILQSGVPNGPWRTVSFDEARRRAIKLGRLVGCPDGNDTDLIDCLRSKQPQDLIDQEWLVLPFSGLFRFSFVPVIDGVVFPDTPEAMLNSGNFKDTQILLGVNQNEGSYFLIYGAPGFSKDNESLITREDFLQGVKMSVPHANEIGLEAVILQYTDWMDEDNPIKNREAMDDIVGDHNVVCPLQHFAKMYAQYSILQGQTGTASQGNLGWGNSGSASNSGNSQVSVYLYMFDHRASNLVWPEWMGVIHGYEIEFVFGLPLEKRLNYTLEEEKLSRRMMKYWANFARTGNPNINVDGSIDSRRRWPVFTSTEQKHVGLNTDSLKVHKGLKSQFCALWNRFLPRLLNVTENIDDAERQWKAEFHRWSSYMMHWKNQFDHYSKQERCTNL

Target: Acetylcholinesterase (AChE) from Electrophorus electricus (Electrophorus electricus, UniProt O42275)
Assay: isothermal titration calorimetry, Michaelis-Menten
Conditions: read-out: Ki (μmol/L) KM Ach 48.5 μmol/L; 36.6 °C; enzyme in ultrapure water; KM printed only in the header of the Ki column

In the case of acetylcholine, the Km is reported as 48.5 µmol/L.
